Reference: ChEMBL document CHEMBL4184197 (Bioorg Med Chem, 2018)

Protein sequences, listed by entry. Tags and fused reporters are not part of them.
UniProt P11416, whole entry: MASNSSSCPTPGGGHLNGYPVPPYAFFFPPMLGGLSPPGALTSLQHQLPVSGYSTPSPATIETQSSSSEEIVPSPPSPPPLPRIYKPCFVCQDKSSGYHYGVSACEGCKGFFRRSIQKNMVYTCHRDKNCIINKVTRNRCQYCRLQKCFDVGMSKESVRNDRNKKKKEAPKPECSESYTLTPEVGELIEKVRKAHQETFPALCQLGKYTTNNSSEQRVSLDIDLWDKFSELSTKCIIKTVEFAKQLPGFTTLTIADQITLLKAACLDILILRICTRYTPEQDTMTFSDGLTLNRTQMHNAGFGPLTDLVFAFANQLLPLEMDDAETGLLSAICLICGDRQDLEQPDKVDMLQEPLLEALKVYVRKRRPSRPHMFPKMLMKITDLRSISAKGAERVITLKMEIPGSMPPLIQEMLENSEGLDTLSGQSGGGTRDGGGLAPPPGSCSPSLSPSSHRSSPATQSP

Molecular target: Retinoic acid receptor alpha (Mus musculus) (UniProt P11416)
Assay: Transactivation of mouse Gal4-fused RARalpha-LBD expressed in COS-7 cells after 1 day by bright-Glo reagent based assay relative to control ATRA
Type: cell-based

In the case of `CCOc1c(Cl)cc(C(=O)Nc2ccc(C(=O)O)c(C)c2)cc1Cl`, the Ratio EC50 is reported as 0.9.
